ChEMBL document CHEMBL3217594, “Structureactivity relationships of methyl-lysine reader antagonists” (Medchemcomm, 2012)

Biological target: T1, Lethal(3)malignant brain tumor-like protein 3 (Homo sapiens, UniProt Q96JM7)
T1 sequence (Q96JM7 whole entry): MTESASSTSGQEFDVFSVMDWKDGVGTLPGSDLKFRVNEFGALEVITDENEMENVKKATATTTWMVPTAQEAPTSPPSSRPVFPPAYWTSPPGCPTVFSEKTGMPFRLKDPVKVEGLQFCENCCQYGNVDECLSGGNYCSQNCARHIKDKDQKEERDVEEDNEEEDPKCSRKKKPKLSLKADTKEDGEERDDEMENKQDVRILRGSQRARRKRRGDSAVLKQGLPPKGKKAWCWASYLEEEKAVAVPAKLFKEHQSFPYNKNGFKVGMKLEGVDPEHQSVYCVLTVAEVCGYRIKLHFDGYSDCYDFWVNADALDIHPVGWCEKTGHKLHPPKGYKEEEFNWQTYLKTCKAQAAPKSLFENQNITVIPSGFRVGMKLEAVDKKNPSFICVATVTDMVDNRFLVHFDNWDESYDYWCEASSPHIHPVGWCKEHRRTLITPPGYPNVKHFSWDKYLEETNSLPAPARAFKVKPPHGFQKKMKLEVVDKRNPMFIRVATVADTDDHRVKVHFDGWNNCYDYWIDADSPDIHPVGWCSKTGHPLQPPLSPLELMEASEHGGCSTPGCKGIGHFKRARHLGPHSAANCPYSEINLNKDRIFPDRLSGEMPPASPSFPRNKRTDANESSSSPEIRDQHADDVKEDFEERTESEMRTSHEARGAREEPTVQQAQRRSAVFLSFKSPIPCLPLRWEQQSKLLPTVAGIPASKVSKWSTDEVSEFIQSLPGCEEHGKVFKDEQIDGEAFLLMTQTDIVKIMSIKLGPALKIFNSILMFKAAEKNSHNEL
Assay: Antagonist activity at His-tagged L3MBTL3 (unknown origin) assessed as inhibition of L3MBTL3/biotinylated H4K20Me2 peptide interaction after 30 mins by AlphaScreen assay

O=C(c1cccc(Br)c1)N1CCC(C2CCCN2)CC1 (stereo unspecified)
IC50: > 30 µM
